Results taken from patent US10640486B2, “Heteroarylcarboxamide derivatives as plasma kallikrein inhibitors” (Boehringer Ingelheim International GmbH, priority 2015, dated 2020).

Sequences of proteins named here, by UniProt entry; tags and fusion partners are left off. Residues count along the entry.
UniProt P03952, 391-638 limits assumed: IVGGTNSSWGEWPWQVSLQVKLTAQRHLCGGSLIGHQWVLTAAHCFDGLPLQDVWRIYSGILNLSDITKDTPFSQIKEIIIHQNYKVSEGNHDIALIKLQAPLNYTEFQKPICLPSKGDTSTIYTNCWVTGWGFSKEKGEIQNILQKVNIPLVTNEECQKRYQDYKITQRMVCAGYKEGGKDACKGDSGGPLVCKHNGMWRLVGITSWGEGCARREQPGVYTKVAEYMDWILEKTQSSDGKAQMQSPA
UniProt P03952, 20-390 partner limits assumed: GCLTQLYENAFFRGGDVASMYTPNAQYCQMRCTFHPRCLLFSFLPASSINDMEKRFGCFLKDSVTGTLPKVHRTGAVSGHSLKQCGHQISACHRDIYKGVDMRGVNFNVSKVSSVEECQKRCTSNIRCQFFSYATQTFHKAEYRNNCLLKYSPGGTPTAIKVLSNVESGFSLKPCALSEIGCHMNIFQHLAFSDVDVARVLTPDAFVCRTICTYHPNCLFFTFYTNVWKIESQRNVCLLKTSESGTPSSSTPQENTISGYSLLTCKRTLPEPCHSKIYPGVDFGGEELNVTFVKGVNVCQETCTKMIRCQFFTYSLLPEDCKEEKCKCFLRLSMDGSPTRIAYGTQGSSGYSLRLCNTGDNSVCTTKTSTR

Target: human Plasma Kallikrein (KLKB1) (Homo sapiens (Human), UniProt P03952)
Experiment: Inhibition of KLKB1 endpoint assay
Type: biochemical
Conditions: read-out: IC50 measurements for the inhibition of human Plasma Kallikrein (KLKB1), fluorogenic substrate H-Pro-Phe-Arg-AMC, 1 hr at Room Temperature
Protocol: The ability of compounds of Formula I to inhibit plasma kallikrein (KLKB1), Factor XIIa (FXIIa), Factor XIa (FXIa), Factor Xa (FXa), Factor IIa (alpha-thrombin; FIIa), plasmin, trypsin, tissue kallikrein 1 (KLK1), Factor VIIa (FVIIa), or FVIIa complexed with Tissue Factor, phospholipids and CaCl2 (FVIIa/TF/PL/CaCl2) was determined using the following biochemical assays in assay buffer (100 mM Tris, 150 mM NaCL, adjusted to a pH of 7.8 with HCl, and containing 0.1% (w/v) BSA and 0.05% (v/v) Tween20) in the presence of 1% (v/v) DMSO:
Evaluation of the Inhibition of KLKB1 Using an Endpoint Assay
Human KLKB1 (0.01 U/mL; Enzyme Research Laboratories) or rat KLKB1 (0.625 nM; produced in-house) was incubated for 1 hr at Room Temperature with 0.10 μM fluorogenic substrate H-Pro-Phe-Arg-AMC (11295 from Bachem) and various concentrations of the test compound in assay buffer. Subsequently, PPACK II (Calbiochem) was added as a stop solution to achieve a final concentration of 1 μM and fluorescence was measured using an Envision Reader (PerkinElmer) with the wavelength excitation setting of 355 nm and the wavelength emission setting of 460 nm.
The IC50 values were obtained with the aid of the inhibition of KLKB1 endpoint assay described above.

Nc1nccc2c1CC[C@H]2NC(=O)c1cn(Cc2ccc(CN3CC4CCCN4C3=O)cc2)nc1C(F)(F)F (stereo partly shown)
IC50: 4 nM
